The values below come from paper PMC6979384, “Characterization of the plant homeodomain (PHD) reader family for their histone tail interactions” (Epigenetics & Chromatin, 2020).

What all share (assay): Histone peptide microarray
Type in all cases: binding, human

One experiment relates to ING3. As to conditions: sheet "Array Heatmap"; GST-tagged ING3; arrays performed twice, total replicate number n = 4. The source says:
(§1) To more comprehensively define the histone interactions of the 31 PHD readers identified from the domain microarray analyses, we probed each on an alternate microarray platform containing a library of 293 synthetic histone peptides with single or combinatorial PTMs (Additional file 2: Figure S4 and Additional file 3: Table S2). […] In general, the 31 PHD fingers were confirmed to associate with the H3 tail with the same H3K4 methyl preferences as in the domain microarrays (Fig. 2; Additional file 3: Table S2). […] In addition, we confirmed the newly identified interactions observed with the domain microarrays for PHRF1 and TRIM66 (Fig. 2).
(§2) The 31 GST-tagged PHD readers identified in the PHD finger domain array were expressed and purified as previously. Histone peptide arrays and peptide pulldown assays were conducted as recently described (specifically, the optimized protocol from Petell et al. for the former).
(§3) Supplementary file 13072_2020_328_MOESM3_ESM.xlsx: Additional file 3: Table S2. Histone Peptide Microarray Results. Excel Tab Peptide List is a compiled list of the entire 293 histone peptide library with amino acid sequence ranges. Excel Tab Peptide Array Grid Map is a table representing the pattern in which peptides have been printed for the peptide microarray. Each number corresponds to the peptide number designated in Peptide List. Excel Tab Average Signals is a compiled set of binding data: chromatin reader at 0.5 μM vs. entire 293 peptide library. Data is presented as the average and standard deviation of 4 replicates. The average signals are colored to indicate signal intensity with green being strong and white being weak/low. […] Key: red= stronger relative binding; blue = weaker relative binding. Excel Tab Array info summary is a table summarizing the domains, sequence coverage, array signal range, and noise for each of the GST-tagged readers assayed on the peptide microarrays.

The subject of the next experiment is CHD5 (PPCC). As to conditions: sheet "Array Heatmap"; GST-tagged CHD5 (PPCC); arrays performed twice, total replicate number n = 4.
Source text: as §1, §2, §3

The subject of another experiment is BPTF (PB). As to conditions: sheet "Array Heatmap"; GST-tagged BPTF (PB); arrays performed twice, total replicate number n = 4.
Source text: as §1, §2, §3

For the next experiment, the system named is RAG2. The settings on record: sheet "Array Heatmap"; GST-tagged RAG2; arrays performed twice, total replicate number n = 4.
Source text: as §1, §2, §3

For a further experiment, the system named is PHF13. As to conditions: sheet "Array Heatmap"; GST-tagged PHF13; arrays performed twice, total replicate number n = 4.
Source text: as §1, §2, §3

For another experiment, the system named is CHD5 (PCC). The settings on record: sheet "Array Heatmap"; GST-tagged CHD5 (PCC); arrays performed twice, total replicate number n = 4.
Source text: as §1, §2, §3

In another experiment the test system is PHF23. The settings on record: sheet "Array Heatmap"; GST-tagged PHF23; arrays performed twice, total replicate number n = 4.
Source text: as §1, §2, §3

A further experiment deals with ING4. As to conditions: sheet "Array Heatmap"; GST-tagged ING4; arrays performed twice, total replicate number n = 4.
Source text: as §1, §2, §3

For another experiment, the system named is TAF3. As to conditions: sheet "Array Heatmap"; GST-tagged TAF3; arrays performed twice, total replicate number n = 4.
Source text: as §1, §2, §3

Another experiment concerns KDM7A. The settings on record: sheet "Array Heatmap"; GST-tagged KDM7A; arrays performed twice, total replicate number n = 4.
Source text: as §1, §2, §3

A further experiment concerns ING5. The settings on record: sheet "Array Heatmap"; GST-tagged ING5; arrays performed twice, total replicate number n = 4.
Source text: as §1, §2, §3

As to H3K4me1 + K9me2: H3 1-15, in the experiment with ING3, the “Array Heatmap signal, ING3” value worked out at 0.4264. The “Array Heatmap signal, CHD5 (PPCC)” value in the experiment on CHD5 (PPCC) amounted to 0.4552. Also, in the experiment with BPTF (PB), the “Array Heatmap signal, BPTF (PB)” value was determined as 0.2979. For the same substance, the “Array Heatmap signal, RAG2” value in the experiment on RAG2 turned out to be 0.2965. Further, the “Array Heatmap signal, PHF13” value with PHF13 is given as 0.5162. Moreover, in the experiment with CHD5 (PCC), the “Array Heatmap signal, CHD5 (PCC)” value is 0.7157. For the same substance, the “Array Heatmap signal, PHF23” value in the experiment on PHF23 is on record as 0.5514. Besides, the “Array Heatmap signal, ING4” value with ING4 was determined as 0.3915. Further, the “Array Heatmap signal, TAF3” value in the experiment on TAF3 is listed as 0.2656. Besides, the “Array Heatmap signal, KDM7A” value in the experiment with KDM7A worked out at 0.3418. In the experiment on ING5, the “Array Heatmap signal, ING5” value is on record as 0.2893.

For the substance H3K4me2 + K9me2: H3 1-15, in the experiment with ING3, the “Array Heatmap signal, ING3” value is 0.5755. For the same substance, the “Array Heatmap signal, CHD5 (PPCC)” value in the experiment on CHD5 (PPCC) is listed as 0.658. For the same substance, in the experiment on BPTF (PB), the “Array Heatmap signal, BPTF (PB)” value is 0.4073. Also, in the experiment on RAG2, the “Array Heatmap signal, RAG2” value is listed as 0.3362. The “Array Heatmap signal, PHF13” value in the experiment on PHF13 is listed as 0.7097. The “Array Heatmap signal, CHD5 (PCC)” value in the experiment with CHD5 (PCC) is recorded as 0.8641. The “Array Heatmap signal, PHF23” value in the experiment on PHF23 came out at 0.6416. Further, in the experiment with ING4, the “Array Heatmap signal, ING4” value came out at 0.5436. Further, in the experiment with TAF3, the “Array Heatmap signal, TAF3” value is recorded as 0.342. Besides, in the experiment on KDM7A, the “Array Heatmap signal, KDM7A” value is 0.3992. The “Array Heatmap signal, ING5” value in the experiment on ING5 is listed as 0.4379.

With H3K9me2 (1-15): H3 1-15, in the experiment on ING3, the “Array Heatmap signal, ING3” value was 0.474. Further, the “Array Heatmap signal, CHD5 (PPCC)” value in the experiment on CHD5 (PPCC) worked out at 0.5349. In addition, the “Array Heatmap signal, BPTF (PB)” value in the experiment with BPTF (PB) amounted to 0.344. In the experiment on RAG2, the “Array Heatmap signal, RAG2” value is listed as 0.2519. Also, the “Array Heatmap signal, PHF13” value in the experiment on PHF13 was 0.6111. Further, in the experiment with CHD5 (PCC), the “Array Heatmap signal, CHD5 (PCC)” value was 0.8159. The “Array Heatmap signal, PHF23” value in the experiment on PHF23 was found to be 0.5145. Besides, the “Array Heatmap signal, TAF3” value in the experiment on TAF3 is given as 0.2478. Besides, the “Array Heatmap signal, KDM7A” value with KDM7A stood at 0.3229. The “Array Heatmap signal, ING5” value in the experiment with ING5 is 0.3284.
